Patent US7572798B2, “Combi-molecules having signal transduction inhibitory properties and DNA damaging properties” (McGill University, priority 2001, dated 2009)

Experiments:
EGFR [1] = molecular target: T1, EGFR (Homo sapiens, UniProt P00533); assay: EGFR TK ELISA with PGT substrate (competitive binding at the ATP site); assay type: biochemical; design: purchased BIOMOL (Plymouth Meeting); also a gift from Pfizer Inc
Procedure: The ability of the combi-molecules to block EGFR TK activity was determined by an ELISA assay using poly(L-glutamic acid-L-tyrosine, 4:1) PGT as a substrate and commercially available EGFR.
Nunc MaxiSorp 96-well plates were incubated overnight at 37° C. with 100μL per well of 0.25 mg/mL PGT in PBS. Excess PGT was removed and the plates were washed 3 times with Tween 20 (0.1%) in PBS. […] The compound was added and phosphorylation initiated by the addition of ATP (20 μM). After 8 min at room temperature with constant shaking, the reaction was terminated by the aspiration of the reaction mixture and by rinsing the plate 4 times with wash buffer (Tween 20 (0.1%) in PBS). […] Antibody was removed by aspiration, and the plates washed 4 times with wash buffer. The signals were developed by the addition of 50 μL per well of TMB peroxidase substrate (Kierkegaard and Perry Laboratories, Gaithersberg, Md.).
This assay is similar to the one previously described. Nunc MaxiSorp 96-well plates were incubated overnight at 37° C. with 100 μl/well of 25 ng/ml PGT in PBS. Excess PGT was removed and the plates were washed three times with wash buffer (Tween 20 (0.1%) in PBS). […] The compound was added and phosphorylation initiated by the addition of ATP (20 μM). […]

EGFR [2] = molecular target: T1, EGFR; assay: EGF-induced EGFR autophosphorylation in A431 cells (Western blot)

In the case of `Cc1cccc(Nc2ncnc3ccc(N(C)C(=O)N(CCCl)N=O)cc23)c1` [FD137, N-(2-Chloroethyl)-N′-methyl-N′-(4-m-tolylaminoquinazolin-6-yl)-N-nitrosourea], the IC50 (EGFR [1]) is reported as roughly 1000 nM and the “effect on EGFR autophosphorylation” value (EGFR [2]) is reported as “blocked EGFR autophosphorylation in A431 cells in a dose dependent manner”.
